# Reference: PMC11272584 (Nature Metabolism, 2024)
# Tests used:
# GIPR S382T = target: T1, GIPR S382T (Homo sapiens, UniProt P48546, S382T); assay: cAMP accumulation; format: cell-based; design: host or cells: HEK293
# T1 sequence (P48546 22-466 S382T): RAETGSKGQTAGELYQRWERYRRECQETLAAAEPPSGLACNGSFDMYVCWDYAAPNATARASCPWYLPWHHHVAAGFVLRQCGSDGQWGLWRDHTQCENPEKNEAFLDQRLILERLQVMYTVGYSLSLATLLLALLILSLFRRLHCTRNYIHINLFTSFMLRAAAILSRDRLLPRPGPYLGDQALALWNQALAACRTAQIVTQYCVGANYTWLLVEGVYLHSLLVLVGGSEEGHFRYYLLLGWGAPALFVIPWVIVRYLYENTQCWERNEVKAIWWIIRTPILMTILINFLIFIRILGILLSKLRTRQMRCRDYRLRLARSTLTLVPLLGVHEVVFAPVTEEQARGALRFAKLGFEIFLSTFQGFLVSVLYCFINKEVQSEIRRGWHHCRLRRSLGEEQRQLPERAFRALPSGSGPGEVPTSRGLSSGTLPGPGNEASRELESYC
# GIPR A207V = target: T2, GIPR A207V (Homo sapiens, UniProt P48546, A207V); settings: GIPR A207V (ECL1), mean, n = 4, duplicate
# T2 sequence (P48546 22-466 A207V): T1 sequence (P48546 22-466 S382T) with A186V, T361S
# GIPR H166Y = target: T3, GIPR H166Y (Homo sapiens, UniProt P48546, H166Y); settings: GIPR H166Y (ICL1), mean, n = 5, duplicate
# T3 sequence (P48546 22-466 H166Y): T1 sequence (P48546 22-466 S382T) with H145Y, T361S
# GIPR L304R = target: T4, GIPR L304R (Homo sapiens, UniProt P48546, L304R); settings: GIPR L304R (5.44), mean, n = 4, duplicate
# T4 sequence (P48546 22-466 L304R): T1 sequence (P48546 22-466 S382T) with L283R, T361S
# GIPR R164Q = target: T5, GIPR R164Q (Homo sapiens, UniProt P48546, R164Q); settings: HEK293A, 1 µM GIP minus vehicle, n = 4, P = 0.0591
# T5 sequence (P48546 22-466 R164Q): T1 sequence (P48546 22-466 S382T) with R143Q, T361S
substance,measurement,setting,value
glucose-dependent insulinotropic polypeptide [GIP],cAMP (Emax),"GIPR S382T; HEK293, GIP(1–42) 1 pM–100 nM, 30 min 37 °C, mean of n = 6",105 % of WT GIPR activity
same,logEC50 (cAMP),"GIPR S382T; HEK293, Hill slope 1.0, mean of n = 6",-9.1
same,logEC50 (Arrestin),GIPR A207V; Hill slope 1.0,-9.4
same,Arrestin (Emax),GIPR A207V; normalized to WT GIPR,83
same,logEC50 (Arrestin),GIPR H166Y; Hill slope 1.0,-9.2
same,Arrestin (Emax),GIPR H166Y; normalized to WT GIPR,36
same,logEC50 (Arrestin),GIPR L304R; Hill slope 1.0,-9.4
same,Arrestin (Emax),GIPR L304R; normalized to WT GIPR,13
same,Mean of ΔBRET,GIPR R164Q,0.0142

# Positions count from the first letter of the chain named.
